Article PMC7497403, “Development of Potent PfCLK3 Inhibitors Based on TCMDC-135051 as a New Class of Antimalarials” (Journal of Medicinal Chemistry, 2020)

Protein sequences, listed by entry. Tags and fused reporters are not part of them. Lines headed by an entry give the natural chain unless they say otherwise; changes in a name come on top.
UniProt O43781: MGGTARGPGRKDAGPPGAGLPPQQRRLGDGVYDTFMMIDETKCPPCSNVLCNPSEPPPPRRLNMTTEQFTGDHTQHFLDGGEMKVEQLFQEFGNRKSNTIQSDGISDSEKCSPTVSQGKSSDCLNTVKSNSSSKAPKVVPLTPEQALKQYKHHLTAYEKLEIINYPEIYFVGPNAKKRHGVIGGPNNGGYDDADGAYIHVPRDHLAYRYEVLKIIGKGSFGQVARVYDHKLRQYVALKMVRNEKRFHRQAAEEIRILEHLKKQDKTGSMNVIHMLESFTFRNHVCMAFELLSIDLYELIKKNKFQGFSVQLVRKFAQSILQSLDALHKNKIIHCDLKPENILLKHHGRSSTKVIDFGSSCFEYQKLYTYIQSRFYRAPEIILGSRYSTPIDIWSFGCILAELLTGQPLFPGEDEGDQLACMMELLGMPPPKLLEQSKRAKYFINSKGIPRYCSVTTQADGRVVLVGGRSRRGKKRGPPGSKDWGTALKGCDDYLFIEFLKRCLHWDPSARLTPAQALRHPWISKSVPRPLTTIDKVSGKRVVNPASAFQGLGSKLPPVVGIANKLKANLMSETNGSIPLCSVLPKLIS
UniProt Q92630: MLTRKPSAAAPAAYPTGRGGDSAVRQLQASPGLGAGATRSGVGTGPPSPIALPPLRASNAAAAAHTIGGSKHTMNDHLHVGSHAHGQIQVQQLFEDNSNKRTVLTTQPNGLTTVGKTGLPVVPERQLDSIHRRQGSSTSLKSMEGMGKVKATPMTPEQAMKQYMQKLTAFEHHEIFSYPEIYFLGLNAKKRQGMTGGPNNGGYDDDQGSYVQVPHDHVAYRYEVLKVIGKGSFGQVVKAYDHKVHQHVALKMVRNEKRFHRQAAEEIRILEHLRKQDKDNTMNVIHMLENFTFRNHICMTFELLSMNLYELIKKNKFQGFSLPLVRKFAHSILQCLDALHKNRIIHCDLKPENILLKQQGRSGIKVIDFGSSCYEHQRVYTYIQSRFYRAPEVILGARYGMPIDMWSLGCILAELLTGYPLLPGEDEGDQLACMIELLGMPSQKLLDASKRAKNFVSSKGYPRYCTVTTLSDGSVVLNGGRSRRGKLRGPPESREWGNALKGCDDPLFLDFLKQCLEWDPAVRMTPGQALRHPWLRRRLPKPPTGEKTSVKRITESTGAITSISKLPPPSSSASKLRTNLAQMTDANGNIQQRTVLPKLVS
UniProt P49841: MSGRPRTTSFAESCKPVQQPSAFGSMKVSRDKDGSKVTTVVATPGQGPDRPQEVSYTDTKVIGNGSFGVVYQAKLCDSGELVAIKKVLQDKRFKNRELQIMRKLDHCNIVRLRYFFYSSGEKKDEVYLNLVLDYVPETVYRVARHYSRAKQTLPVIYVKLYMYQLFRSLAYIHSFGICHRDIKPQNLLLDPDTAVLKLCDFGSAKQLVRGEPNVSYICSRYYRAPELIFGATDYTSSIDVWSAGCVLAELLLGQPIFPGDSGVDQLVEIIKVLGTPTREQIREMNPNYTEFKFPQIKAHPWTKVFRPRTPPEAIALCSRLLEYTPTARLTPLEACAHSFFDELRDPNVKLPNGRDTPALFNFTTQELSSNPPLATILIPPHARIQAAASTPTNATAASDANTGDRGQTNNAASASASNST
UniProt P49760, whole entry: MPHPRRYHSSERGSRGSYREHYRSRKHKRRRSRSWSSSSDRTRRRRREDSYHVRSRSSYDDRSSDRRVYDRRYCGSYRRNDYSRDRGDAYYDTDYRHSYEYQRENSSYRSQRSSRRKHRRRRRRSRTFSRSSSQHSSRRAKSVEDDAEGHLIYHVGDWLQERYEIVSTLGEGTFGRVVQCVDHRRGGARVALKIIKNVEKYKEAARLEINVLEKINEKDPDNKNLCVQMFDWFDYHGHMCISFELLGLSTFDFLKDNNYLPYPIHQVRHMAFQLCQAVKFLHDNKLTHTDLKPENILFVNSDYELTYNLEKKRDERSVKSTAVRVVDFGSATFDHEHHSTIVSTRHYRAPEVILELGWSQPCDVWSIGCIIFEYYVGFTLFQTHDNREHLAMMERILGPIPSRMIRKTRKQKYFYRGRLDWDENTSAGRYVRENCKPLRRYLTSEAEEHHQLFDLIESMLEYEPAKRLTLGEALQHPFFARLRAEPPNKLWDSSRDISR

Key:
Experiment in all cases: biochemical
DYRK3 = DYRK3 (Homo sapiens, UniProt O43781)
DYRK2 = DYRK2 (Homo sapiens, UniProt Q92630)
DYRK1A = DYRK1A (Homo sapiens, UniProt Q13627)
GSK3b = GSK3b (Homo sapiens, UniProt P49841)
CLK2 = CLK2 (Homo sapiens, UniProt P49760)

CCN(CC)Cc1ccc(OC)c(-c2cc3c(-c4ccc(C(=O)O)c(C(C)C)c4)ccnc3[nH]2)c1 [analogue 1, 4-(2-(5-((Diethylamino)methyl)-2-methoxyphenyl)-1H-pyrrolo[2,3-b]pyridin-4-yl)-2-isopropylbenzoic Acid]
activity at 1 µM (DYRK3): 101%
activity at 1 µM (DYRK2): 99%
activity at 1 µM (DYRK1A): 71%
activity at 1 µM (GSK3b): 51%
activity at 1 µM (CLK2): 17%
